By UniProt entry, the sequences of proteins in these tests, tags left out. Residues count along the entry.
UniProt P31749, 118-480 S473D limits assumed: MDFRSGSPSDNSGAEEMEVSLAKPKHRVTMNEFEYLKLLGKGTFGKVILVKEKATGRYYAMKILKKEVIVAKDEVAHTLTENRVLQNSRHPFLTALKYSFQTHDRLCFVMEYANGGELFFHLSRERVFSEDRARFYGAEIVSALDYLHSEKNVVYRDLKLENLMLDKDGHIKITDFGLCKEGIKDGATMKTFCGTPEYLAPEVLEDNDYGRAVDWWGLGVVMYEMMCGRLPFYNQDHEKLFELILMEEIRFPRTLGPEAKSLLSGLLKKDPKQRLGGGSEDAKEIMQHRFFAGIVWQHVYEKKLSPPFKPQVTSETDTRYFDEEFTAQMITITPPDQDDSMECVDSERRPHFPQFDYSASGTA

According to US20100298377A1, “NOVEL SUBSTITUTED INDAZOLES, THE PREPARATION THEREOF AND USE OF SAME IN THERAPEUTICS” (SANOFI-AVENTIS, priority 2007, published 2010):

Molecular target: AKT1 (Homo sapiens, UniProt P31749, S473D)
Assay: Determination of the IC50 for AKT1 (HTRF)
Format: biochemical
Conditions: AKT1 without PH domain, activated by PDK1
Description: Determination of the IC50 for AKT1
The inhibitory potential of the compounds is evaluated by HTRF, a time-resolved fluorescence technique based on non-radiative energy transfer (FRET). […] This phosphorylation allows the kinase activity of AKT1 to be activated.
Starting with a 10 mM solution of inhibitors, 3 μl are taken and placed in a 96-well polypropylene plate containing 27 μl of 100% DMSO. The various test compounds are diluted in cascade by taking 15 μl of compound, to which are added 30 μl of 100% DMSO.
The various reaction components are added in the following manner:
Next, 10 μl of the inhibitor solution are added. Finally, the reaction is initiated by adding 10 μl of a solution containing both 100 μM of ATP and 10 μM of biotinylated peptide. The sequence of this peptide is as follows: biot-[…] (reference Neosystem SP000560). The plate is then covered with a plastic film, agitated and finally incubated at RT for 30 minutes. […] After incubation overnight at 4° C., the plate is read using an Ultra evolution spectrophotometer from Tecan. […] All the tests are performed in duplicate and the mean of the two tests is calculated.
For each point, a delta F is calculated in the following manner:
R(Ratio)=counts665 nm/counts620 nm
ΔF % is calculated by the Tecan Ultra Evolution machine.

IC50 [nM] | Substance
100 to 500 | 1-(1H-Indazol-6-yl)-3-[(1-methylpiperid-2-yl)(phenyl)methyl]urea((S,2S),(R,2R)) [Ex 2]
100 to 500 | 1-(1H-Indazol-5-yl)-3-[(1-methylpiperid-2-yl)(phenyl)methyl]urea((S,2S),(R,2R)) [Ex 1]
